{"source": "patent US5679636A", "about": "“Bone and prostate-derived protein factors affecting prostate cancer growth, differentiation, and metastasis” (Board of Regents, The University of Texas, priority 1994, dated 1997)", "tested_on": "LNCaP cells", "test": "cells", "conditions": "Homo sapiens"}
{"smiles": "C[C@]12CC[C@H]3[C@@H](CCC4=CC(=O)CC[C@@]43C)[C@@H]1CC[C@@H]2O", "note": "[testosterone]", "values": [{"measurement": "activation at 0.0005 µM", "setting": "216 h, read-out: increase in cell number (peak response)", "value": 62, "unit": "%"}, {"measurement": "activation at 0.001 µM", "setting": "read-out: increase in cell growth", "value": 182, "unit": "%"}]}
